## AlphaSeq binding of Ab-95 light chain variants to a spike HR2 peptide

Reference: Engelhart et al. 2022, doi:10.1038/s41597-022-01779-4. File: FLAb, binding data.

The target is the same throughout: PDVDLGDISGINAS, from the HR2 region of SARS-CoV-2 spike.

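Phage display of a naive human antibody library on the peptide gave the parent. Library AAYL52 holds single substitutions and randomly drawn double and triple substitutions in the CDRs. In AlphaSeq, yeast of one mating type display the scFv and yeast of the other type display the target. After mating in shaken culture at 30 °C for 16 h, diploids were selected and their barcode pairs sequenced. Read counts were normalised to the haploid input and turned into Kd by a linear fit to BCL2-family pairs of known affinity, for each replicate. There are three technical replicates.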

Parent scFv Ab-95: VH joined to VL by a 15-residue (Gly4Ser)3 linker. Changes lie in the light chain CDRs alone.
VH: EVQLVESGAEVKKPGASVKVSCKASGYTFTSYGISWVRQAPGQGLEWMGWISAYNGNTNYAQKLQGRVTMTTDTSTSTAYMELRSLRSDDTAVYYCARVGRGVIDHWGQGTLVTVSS
VL: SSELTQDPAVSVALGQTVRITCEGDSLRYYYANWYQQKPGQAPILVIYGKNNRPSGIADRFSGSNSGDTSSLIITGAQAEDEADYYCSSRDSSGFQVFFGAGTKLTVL

The parent's light chain CDRs are EGDSLRYYYAN, GKNNRPS, SSRDSSGFQVF; each variant's own CDRs replace them letter for letter.
The Kd shown is the geometric mean over detected replicates; a lower Kd is a better binder.
A pair that was not seen in any replicate is written "no signal"; this usually means weak binding, but a binder can also be missed.
The list is sorted by this average, lowest first, undetected variants last.
Three control strains display no target. For library AAYL52, 28% of the pairings with them gave a signal, with a median of 8.2 µM and one signal in twenty below 800 nM, so weak values seen in few replicates may be background.

apparent Kd	replicates with signal	CDR-L1	CDR-L2	CDR-L3
90 nM	3 of 3	EGSSLRYYYPN	GKNNRPS	SSRDSSGFQVL
96 nM	2 of 3	EGDSLRYYYAN	GENNRHS	SSRDSSGQQVF
160 nM	3 of 3	EGDSLKYYYAN	GKNNRPS	VSRDSSGCQVF
190 nM	3 of 3	EGDSLRYYYAN	GKNNRPS	SSRGSHGFQYF
440 nM	3 of 3	EGDSLRYVYAN	GNNNRPS	SSRDSSGFQNF
620 nM	3 of 3	EGDSLRYQYAL	GKNLRPS	SSRDSSGFQVF
710 nM	3 of 3	QGDSLRYYYAN	GKNNDPS	SSRDSSGFCVF
780 nM	2 of 3	EGWSLRYYYAN	GANNRPS	SSRDSSGFQVF
1.2 µM	3 of 3	EGDSLKYYYSN	GKNNRPS	SSRDSIGFQVF
1.2 µM	1 of 3	EGDSLRYYYAN	GKLNRPS	SSRDSSGNQNF
1.3 µM	3 of 3	EGDSLRKYYAN	GKENRPS	SSRGSSGFQVF
1.4 µM	1 of 3	EGDKHRYYYAN	GKNRRPS	SSRDSSGFQVF
1.5 µM	3 of 3	EGDSLRYYIAN	GKNNRPW	SSRDSSGFQVF
1.8 µM	3 of 3	EGDSLRYYCAN	GKNNNPS	SSRDSSGTQVF
1.9 µM	2 of 3	HHDSLRYYYAN	GKNNRPS	SDRDSSGFQVF
2.2 µM	3 of 3	EGGSLRHYYAN	GKNNRPS	SSRDSSGFLVF
2.2 µM	2 of 3	EGVSLRQYYAN	GKNNRPS	SSRESSGFQVF
2.4 µM	2 of 3	EGDSFRYYYNN	GKNNRPS	SSRCSSGFQVF
2.7 µM	3 of 3	EGDSLRYYYAN	GKNNRPS	SSRDSSEFQHF
3.7 µM	2 of 3	EHDSLRYYYPN	GKNNRPS	SSRASSGFQVF
4.1 µM	3 of 3	EGDSLIYYYAN	GSSNRPS	SSRDSSGFQVF
4.5 µM	2 of 3	EGDSLAYYYNN	TKNNRPS	SSRDSSGFQVF
7.1 µM	3 of 3	EGDSLRYYYAN	GKNARPS	SQRDSSTFQVF
7.3 µM	1 of 3	EGDSLRYYYWN	GKTNRPS	SSRDSSGFQVA
7.7 µM	2 of 3	EGDSLRYYYAN	GKNNNPS	SSRESSGFQVS
9.3 µM	1 of 3	EGDSLRWYYAN	GKNNRPS	SWEDSSGFQVF
11 µM	2 of 3	EPDSLRYYYLN	GKNNRPS	LSRDSSGFQVF
12 µM	3 of 3	EGDSLRYYYIC	GKNNRPS	SWRDSSGFQVF
13 µM	3 of 3	EGDSLRYYYMN	GKNSRPS	SSRWSSGFQVF
14 µM	2 of 3	EGDSSRYYYAN	TKNNRPS	VSRDSSGFQVF
17 µM	2 of 3	EGDSLRCYYAN	GKPNRPS	SSRDSSGIQVF
17 µM	2 of 3	EGDSHRYYYAN	GKANRPS	SSRDSLGFQVF
25 µM	1 of 3	EGDSLRYYVAN	GKNNQPS	SSRFSSGFQVF
25 µM	2 of 3	EGDSLRYYYAN	GKNNEPS	ASRDSVGFQVF
31 µM	3 of 3	EFDSLRYYRAN	GKNNRPS	SSRDSSGFQVF
52 µM	2 of 3	EQDFLRYYYAN	GKNNRPS	SSCDSSGFQVF
190 µM	1 of 3	VGDSPRYYYAN	GKNNRPS	SSDDSSGFQVF
380 µM	1 of 3	EGDSLRYYYKN	GINNRPS	SSRKSSGFQVF
no signal	0 of 3	DGDSLTYYYAN	GKNNRPS	SSRDSSGFQWF
no signal	0 of 3	WGRSLRYYLAN	GKNNRPS	SSRDSSGFQVF
no signal	0 of 3	EGDSDRYYYAN	GKNNRPE	SSRDSSGFQVF
no signal	0 of 3	EGDSLRYYYAN	GYNNRCS	SSRDSEGFQVF
no signal	0 of 3	PGDSHRYYYAN	VKNNRPS	SSRDSSGFQVF
no signal	0 of 3	EGDSLRYYYAA	GKNNRPS	SSRDSSGFQLH
no signal	0 of 3	EGDSLEYYYAN	GKNNRPS	SSNDSSGFQVF
no signal	0 of 3	EGLSLRYYYAN	GKNNPPS	SSRDSSHFQVF

3 of these entries, quoted again:

| CDR-L1 | CDR-L2 | CDR-L3 | apparent Kd | replicates with signal |
|---|---|---|---|---|
| EGDSLRYVYAN | GNNNRPS | SSRDSSGFQNF | 440 nM | 3 of 3 |
| EGDSLRYYYAN | GKNNRPS | SSRDSSEFQHF | 2.7 µM | 3 of 3 |
| EGDSLRWYYAN | GKNNRPS | SWEDSSGFQVF | 9.3 µM | 1 of 3 |